Assay results published in patent publication US7507792B2, “MDA-7 proteins and methods of use thereof” (The Trustees of Columbia University In The City of New York, priority 1993, dated 2009).

Columns and labels:
[1] = test system: H0-1 cells; assay: Northern blotting analysis of steady-state mRNA levels; format: cell-based, human; conditions: 96 h, FIG. 1 concentrations
Experimental: Steady-state levels of specific mRNAs were determined by Northern blotting analysis of total RNA probed with appropriate ^32P-labeled gene probes as described previously (14-16). RNAs were analyzed from cells treated with inducer for 24 hours, treated for 24 hours with inducer followed by growth for 72 hours in the absence of inducer, or treated continuously for 96 hours with the inducer. The concentration of inducing compounds used were the same as those used for growth studies. The effect of conditioned medium on gene expression changes was determined by treating H0-1 cells for 24 hours with a 1:2 dilution of conditioned medium (equal volumes of conditioned medium and DMEM supplemented with 10% fetal bovine serum (DMEM-10) or for 96 hours with a 1:4 dilution of conditioned medium (1 vol. of conditioned medium to 3 vol. of DMEM-10). The probes used in the present study were specific for β-actin (17), γ-actin (17), c-jun (18), c-myc (19), fibronectin (20), gro/MGSA (21), HLA Class I antigen (22), HLA Class II antigen (HLA-DRβ) (22), α5 integrin (23), β1 integrin (24), ISG-15 (25), ISG-54 (25), jun-B (26), and tenascin (27). Northern blots were also probed with a ^32P-labeled GAPDH gene (15) to verify similar mRNA expression under the various experimental conditions. Following hybridization, the filters were washed and exposed for autoradiography.

[2] = test system: mda-5; assay: mda-5 expression (Northern blotting); format: cell-based, human; conditions: H0-1
Experimental: FIG. 19 Effect of various treatment protocols on mda expression in H0-1 cells. IFN-β (2,000 units/ml, 24 hours); MEZ (10 ng/ml, 24 hours); IFN-β+MEZ (2,000 units/ml+10 ng/ml, 24 hours); phenyl butyrate (PB) (4 mM, 24 hours, 4 d, 7 d); γ Rad (γ irradiation) 3 gray, 24 hours, Act D (actinomycin D) (5 μg/ml, 2 hour→24 hours assay); Adriamycin (Adr) (0.1 μg/ml, 24 hours); Vincristine (Vin) (0.1 μg/ml, 24 hours); cis-plt (cis-platinum) (0.1 μg/ml, 24 hours); TNF-α (tumor necrosis factor-α) (100 units/ml, 24 hours); UV (10 joules/mm^2, 2, 14 and 24 hours assay); VP-16 (5 μg/ml, 24 hours); IFN-α (2,000 units/ml, 24 hours); and IFN-α+MEZ (2,000 units/ml+10 ng/ml, 24 hours).
The mass excision of the library was performed using ExAssist helper phage as described above. The SOLR strain of Escherichia coli and cDNA phagemids were mixed at 37° C. for 15 min and plated onto LB plates containing ampicillin and IPTG/X-gal. White colonies were chosen at random, isolated and grown in LB medium. Plasmid minireps and restriction enzyme digestions were performed to confirm the presence of inserts. The inserts were isolated and used as robes for Northern blotting analysis (5,25). […]

B1: IFN-β: Recombinant human IFN-β, with a serine substituted for a cysteine at position 17 of the molecule (protein)
chain: MSYNLLGFLQRSSNFQCQKLLWQLNGRLEYCLKDRMNFDIPEEIKQLQQFQKEDAALTIYEMLQNIFAIFRQDSSSTGWNETIVENLLANVYHQINHLKTVLEEKLEKEDFTRGKLMSSLHLKRYYGRILHYLKAKEYSHCAWTIVRVEILRNFYFINRLTGYLRN
HLA Class I antigen gene expression [1]: did not significantly alter
fibronectin expression [1]: least effective
induction of gro/MGSA gene expression [1]: did not
tenascin expression [1]: decreased tenascin expression
mda-5 expression ([2]; 24 hours, doses of FIG. 19, phenyl butyrate 24 hours, 4 days or 7 days): increased expression
mda-5 expression ([2]; 96 hours, doses of FIG. 15 legend): Very low induction
